{"source": "patent US20160282364A1", "about": "“ASSAY FOR INSULIN-DEGRADING ENZYME (IDE) INHIBITORS” (PRESIDENT AND FELLOWS OF HARVARD COLLEGE, priority 2013, published 2016)", "origin": "cited, not measured here", "system": "IDE", "details": "degradation kinetics compared to insulin; cited from earlier work", "data": [{"substance": "calcitonin-gene related peptide (ACDTATCVTHRLAGLLSRSGGVVKNNFVPTNVGSKAF; Calcitonin gene-related peptide 1; UniProt P06881 83-119, looked up) [calcitonin-gene related peptide (CGRP), IDE substrate in vitro]", "values": [{"measurement": "Degradation", "result": "Medium"}]}]}
